Data published in PMC6335200 (Journal of medicinal chemistry, 2018).

These compounds were tested on DENV2 (New Guinea C strain).

Row | SMILES | anti-DENV activity (in words)
1 | COc1cc(-c2cnc3c(N4CCC(F)(F)CC4)snc3c2)ccc1N [Compound 12b, 4-(3-(4,4-Difluoropiperidin-1-yl)isothiazolo[4,3-b]pyridin-6-yl)-2-methoxyaniline] | no antiviral activity
2 | COc1cc(-c2cnc3c(N4CCC(C(N)=O)CC4)snc3c2)ccc1N [Compound 12c, 1-(6-(4-Amino-3-methoxyphenyl)isothiazolo[4,3-b]pyridin-3-yl)piperidine-4-carboxamide] | no antiviral activity
3 | COc1cc(-c2cnc3c(N4CCOC(C)(C)C4)snc3c2)ccc1N [Compound 12o, 4-(3-(3,3-Dimethylpiperidin-1-yl)isothiazolo[4,3-b]pyridin-6-yl)-2-methoxyaniline] | no antiviral activity beyond toxicity
4 | COc1cc(-c2cnc3c(N4CCOC[C@@H]4C)snc3c2)ccc1N [Compound 12p, (S)-2-Methoxy-4-(3-(3-methylmorpholino)isothiazolo[4,3-b]pyridin-6-yl)aniline] | no antiviral activity beyond toxicity
5 | COc1cc(-c2cnc3c(N4CCOC[C@H]4C)snc3c2)ccc1N [Compound 12q, (R)-2-Methoxy-4-(3-(3-methylmorpholino)isothiazolo[4,3-b]pyridin-6-yl)aniline] | lacked antiviral activity
